Measured values published in PubChem BioAssay AID1851 (National Center for Advancing Translational Sciences (NCATS), 2009).
The hits were mostly taken out for another list; the other results follow. Inconclusive results are not listed. The source made the active and inactive calls. Calls follow the shape of the dose curve; as a rule, active = well fitted curve in the direction sought with a large enough effect; inconclusive = small, poorly fitted or top-dose-only effect, or effect the other way; inactive = no such curve, though single readings can be large or run the other way.

Chains of the proteins cited; added tags and fusions are not shown.
UniProt P33261, whole entry, looked up: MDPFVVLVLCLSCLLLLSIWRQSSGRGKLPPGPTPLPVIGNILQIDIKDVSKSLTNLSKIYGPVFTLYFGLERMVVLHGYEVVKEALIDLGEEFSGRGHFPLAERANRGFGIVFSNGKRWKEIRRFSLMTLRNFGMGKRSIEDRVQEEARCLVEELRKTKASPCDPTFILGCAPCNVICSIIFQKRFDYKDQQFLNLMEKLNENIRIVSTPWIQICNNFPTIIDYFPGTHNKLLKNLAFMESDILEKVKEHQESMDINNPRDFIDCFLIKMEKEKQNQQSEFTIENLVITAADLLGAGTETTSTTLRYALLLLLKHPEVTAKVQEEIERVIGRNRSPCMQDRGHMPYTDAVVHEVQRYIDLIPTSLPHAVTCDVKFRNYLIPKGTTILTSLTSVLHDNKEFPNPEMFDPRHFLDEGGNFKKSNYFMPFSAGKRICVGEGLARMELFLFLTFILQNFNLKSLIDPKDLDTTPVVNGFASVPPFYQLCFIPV

target: Cytochrome P450 2C19 (Homo sapiens) (UniProt P33261); experiment: Cytochrome panel assay with activity outcomes; conditions: recombinant CYP, pro-luciferin dealkylation, luminescence, p450-cyp2c19; at 57.1 µM (top of the series)
% is scaled to controls: 0 for no effect and ±100 for the full control effect.

SMILES | activity, negative = inhibition
CN1CC[C@@]2(CCCN(C(=O)c3csnn3)C2)C1 | inactive: -9.55%
CN1CCCC2(CCN(C(=O)c3csnn3)CC2)C1 | inactive: 37.1%
